From patent US11701354B2, “Pyrazolo[3,4-b]pyrazine derivatives as SHP2 phosphatase inhibitors” (Relay Therapeutics, Inc., priority 2017, dated 2023)

Chains of the proteins cited; added tags and fusions are not shown.
UniProt Q06124, whole entry: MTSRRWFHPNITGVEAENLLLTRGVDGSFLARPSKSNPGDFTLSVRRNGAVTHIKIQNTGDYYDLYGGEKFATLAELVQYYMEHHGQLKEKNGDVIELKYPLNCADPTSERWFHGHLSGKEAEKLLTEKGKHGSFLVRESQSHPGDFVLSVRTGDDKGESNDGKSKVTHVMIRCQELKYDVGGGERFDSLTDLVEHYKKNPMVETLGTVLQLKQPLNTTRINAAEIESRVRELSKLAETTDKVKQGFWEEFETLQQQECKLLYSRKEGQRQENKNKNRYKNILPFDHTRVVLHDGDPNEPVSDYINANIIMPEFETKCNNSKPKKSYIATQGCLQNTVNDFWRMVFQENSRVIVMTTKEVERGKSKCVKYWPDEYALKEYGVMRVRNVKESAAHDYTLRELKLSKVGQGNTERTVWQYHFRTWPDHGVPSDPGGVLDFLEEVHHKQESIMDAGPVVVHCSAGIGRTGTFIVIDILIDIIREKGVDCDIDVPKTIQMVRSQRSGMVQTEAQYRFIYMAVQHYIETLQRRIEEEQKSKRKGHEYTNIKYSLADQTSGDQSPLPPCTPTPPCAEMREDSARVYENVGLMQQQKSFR

Target: SHP2 (Homo sapiens (Human), UniProt Q06124)
Test: SHP2 Allosteric Inhibition Assay (DiFMUP prompt fluorescence)
Conditions: read-out: SHP2 IC50; 0.25 nM SHP2 activated with 0.5 μM peptide IRS1_pY1172(dPEG8)pY1222; substrate DiFMUP 100 μM
Description: SHP2 Allosteric Inhibition Assay.
SHP2 is allosterically activated through binding of bis-tyrosyl-phorphorylated peptides to its Src Homology 2 (SH2) domains. The latter activation step leads to the release of the auto-inhibitory interface of SHP2, which in turn renders the SHP2 protein tyrosine phosphatase (PTP) active and available for substrate recognition and reaction catalysis. The catalytic activity of SHP2 was monitored using the surrogate substrate DiFMUP in a prompt fluorescence assay format.
More specifically, the phosphatase reactions were performed at room temperature in 96-well black polystyrene plate, flat bottom, low flange, non-binding surface (Corning, Cat #3575) using a final reaction volume of 50 μl and the following assay buffer conditions: 60 mM HEPES, pH 7.2, 75 mM NaCl, 75 mM KCl, 1 mM EDTA 0.005% Brij-35, 5 mM DTT.
The inhibition of SHP2 by compounds of the disclosure (concentrations varying from 0.003-100 μM) was monitored using an assay in which 0.25 nM of SHP2 was incubated with of 0.5 μM of peptide IRSl_pY1172(dPEG8)pY1222 (sequence: H2N-LN(pY)IDLDLV(dPEG8)LST(pY)ASINFQK-amide). […]

## CN(c1cnc2c(-c3cccc4ncccc34)n[nH]c2n1)[C@@H]1CCCC[C@@H]1N
  IC50: < 1 µM
